Inhibition data for 1 molecule are collected here from ChEMBL document CHEMBL1811821, “Cystic fibrosis: a new target for 4-Imidazo[2,1-b]thiazole-1,4-dihydropyridines” (J Med Chem, 2011).

The nature of this assay: Bronchodilatory activity in guinea pig trachea assessed as inhibition of carbachol-induced contraction at 10^-5 M. The assay is classed as functional. Particulars: Cavia porcellus.

SMILES strings stand for the structures.

On to `CCOC(=O)C1=C(C)NC(C)=C(C(=O)OCC)C1c1c(Cl)nc2sc(C)cn12`, for which the inhibition at 10 µM turned out to be 92%.
